# Reference: patent US9181253B2 (The United States of America, as represented by the …, priority 2008, dated 2015)
# Protein sequences, listed by entry. Tags and fused reporters are not part of them.
# UniProt P30542, whole entry: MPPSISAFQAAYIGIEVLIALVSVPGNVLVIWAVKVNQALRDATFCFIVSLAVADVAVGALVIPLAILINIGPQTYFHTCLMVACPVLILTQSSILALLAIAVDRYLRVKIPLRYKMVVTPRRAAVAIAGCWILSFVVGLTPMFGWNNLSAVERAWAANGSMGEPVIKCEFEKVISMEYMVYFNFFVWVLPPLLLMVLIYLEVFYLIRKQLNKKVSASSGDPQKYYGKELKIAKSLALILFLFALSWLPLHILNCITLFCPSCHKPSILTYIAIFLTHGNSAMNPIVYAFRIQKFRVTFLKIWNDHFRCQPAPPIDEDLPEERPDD
# UniProt P0DMS8, whole entry: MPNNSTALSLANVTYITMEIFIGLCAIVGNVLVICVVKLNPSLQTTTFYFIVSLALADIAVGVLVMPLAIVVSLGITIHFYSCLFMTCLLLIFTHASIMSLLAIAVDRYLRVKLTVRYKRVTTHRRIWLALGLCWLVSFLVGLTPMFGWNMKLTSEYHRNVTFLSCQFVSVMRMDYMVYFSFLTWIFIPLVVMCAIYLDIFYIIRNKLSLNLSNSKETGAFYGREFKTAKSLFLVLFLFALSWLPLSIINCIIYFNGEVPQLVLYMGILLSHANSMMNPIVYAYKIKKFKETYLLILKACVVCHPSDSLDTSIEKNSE
# Legend:
# [1] = molecular target: hA1AR (Homo sapiens (Human), UniProt P30542); experiment: A1AR functional assay, inhibition of forskolin-stimulated cyclic AMP production in AR-transfected CHO cells; format: cell-based
# [2] = molecular target: human A3 receptor (Homo sapiens (Human), UniProt P0DMS8); experiment: Binding assay at the human A3 receptor (Example 2); details: CHO cells expressing human A3AR; radioligand [125I]I-AB-MECA; n = 3-5; read-out: Affinity (Ki, nM) A3
structure (smiles),measurement,setting,value
"CCNC(=O)[C@H]1O[C@@H](n2cnc3c(N)ncnc32)[C@H](O)[C@@H]1O [Compound 236, 5′-N-ethylcarboxamidoadenosine, reference compound]","% Inhibition, cyclic AMP A1","[1]; maximal efficacy at 10 μM, in comparison to effect (100%) of full agonist CPA at 10 μM, n = 3-5",100 ± 15%
"O[C@@H]1[C@H](O)[C@@H]2C[C@@H]2[C@H]1n1cnc2c(NCc3cccc(Cl)c3)nc(Cl)nc21 [Compound 8b, (1′R,2′R,3′S,4′R,5′S)-4′-[2-Chloro-6-(3-chlorobenzylamino)purine]-2′,3′-O-dihydroxybicyclo-[3.1.0]hexane]",Ki,[2],1.06 ± 0.36 nM
"CC(Nc1nc(Cl)nc2c1ncn2[C@H]1[C@H](O)[C@H](O)[C@@H]2C[C@@H]21)C1CC1 (stereo partly drawn) [Compound 120, (1R,2R,3S,4R,5S)-4-(2-Chloro-6-(1-cyclopropylethylamino)-9H-purin-9-yl)bicyclo[3.1.0]hexane-2,3-diol]",inhibition at 10 µM,"[1]; CHO, read-out: % Inhibition, cyclic AMP A1",45.5 ± 4.8%
